Assay [1] has as its target T1, full length human galectin-3 (hGal3), Cys173 mutated to Thr (human, UniProt P17931 1-250, Cys173 mutated to Thr). As to the kind of experiment: SPR. A general note: Surface plasmon resonance follows binding to a sensor surface in real time, without labels.
Assay [2] addresses T1, full length human galectin-3 (hGal3), …. As to the kind of experiment: ELISA.

The chains behind the UniProt entries cited, without tags or fusion partners. Where a name states a change or a piece, a line headed by the entry shows the natural chain unless it says otherwise.
UniProt P17931: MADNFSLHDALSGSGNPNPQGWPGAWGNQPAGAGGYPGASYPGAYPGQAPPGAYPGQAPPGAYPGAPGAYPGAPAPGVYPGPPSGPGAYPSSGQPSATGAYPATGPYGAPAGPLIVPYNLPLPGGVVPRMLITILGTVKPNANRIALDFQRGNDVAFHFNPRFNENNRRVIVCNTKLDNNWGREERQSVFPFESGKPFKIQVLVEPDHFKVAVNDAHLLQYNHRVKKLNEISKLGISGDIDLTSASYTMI

B1: GaletuzuFab-PAS200-Cy7 (Fab, V domains shown)
VH: QIQLVQSGAEVKKPGESLKISCKVSGYTFTDYAIHWVRQMPGKGLKWMGWINTYTGKPIYADDFKGQVIISLDKSINTAYLQWSSLKASDTAIYYCARGTMMASLDYWGQGTTVTVSS
VL: DVVMTQSPSSLSASVGDRVTITCKSSQSLVHSDGKTYLSWIQQKPGKAPKGLIYLVSKLDSGVPSRFSGSGSETDFTLTISSLQPEDSATYYCWQATHFPLTFGPGTKVDIR
modifications: Cy7 coupled via maleimide to the C-terminal Cys
A word on the Kd: it is the equilibrium constant for the complex coming apart. Low values mean higher affinity, high ones lower affinity. B1: the affinity in assay [1], expressed as Kd, was 0.24 nM.

B2: GaletuzuFab-PAS200-Cys (Fab, V domains shown)
VH: B1 VH
VL: B1 VL
For the molecule B2, the Kd in assay [2] amounted to 1.5 nM. In other words, the single-digit nanomolar range.

B3: GaletuzuFab-PAS200-Dfo (Fab, V domains shown)
VH: B1 VH
VL: B1 VL
modifications: deferoxamine (Dfo) coupled via maleimide to the C-terminal Cys
B3 showed a Kd in assay [1] of 0.26 nM.

Source of the values: article PMC8016950 (2021).
